“And” between values parts separate entries of the source, which are not always exact repeats. Identical values can stand only once. Only a part is listed here, and it is no random draw. The source made the active and inactive calls. Rule as the data show it: active = activation above about 11%; inactive = the rest.
Target: Sphingosine 1-phosphate receptor 4 (Homo sapiens) (UniProt O95977)
Experiment: activators of human S1P4 receptor – cell-based, primary screen (AID 1509);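 also: 0% = DMSO vehicle and 100% = reference agonist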
Conditions: S1P4-expressing cell line, agonist reporter assay; at 4.98 µM; stronger effect = higher value

Amino acid sequences for entries named in this document (tags omitted). A change or cut given only in a name is not applied to a line headed by its entry.
UniProt O95977: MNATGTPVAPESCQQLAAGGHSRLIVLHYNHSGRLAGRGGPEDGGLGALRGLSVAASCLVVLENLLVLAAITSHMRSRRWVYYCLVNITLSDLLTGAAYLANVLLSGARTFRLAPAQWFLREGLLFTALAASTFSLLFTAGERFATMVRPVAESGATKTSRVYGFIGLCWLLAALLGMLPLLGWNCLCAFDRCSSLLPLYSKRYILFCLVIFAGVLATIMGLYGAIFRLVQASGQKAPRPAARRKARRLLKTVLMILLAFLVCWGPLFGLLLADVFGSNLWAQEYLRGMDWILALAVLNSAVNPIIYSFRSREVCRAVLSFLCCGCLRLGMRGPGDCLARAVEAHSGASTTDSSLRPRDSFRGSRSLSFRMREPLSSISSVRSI

Structure (SMILES) | activation
O=[N+]([O-])c1ccc2c(c1)nnn2O | inactive: -0.54%
CCOP1(=S)c2c(C)nn(CCC#N)c2N=C(c2ccc(F)cc2)N1C (configuration not stated) | inactive: -0.42%
Nc1ccccc1[As](=O)(O)c1ccccc1 | inactive: 0.08%
O=C(O)COc1ccc([As](=O)(O)O)cc1[N+](=O)[O-] | inactive: -1.58%
CS(=O)(=O)c1cc([N+](=O)[O-])c2no[n+]([O-])c2c1 | inactive: -1.81%
O=P(Nc1nccs1)(c1ccccc1)c1nc2ccccc2s1 (configuration not stated) | inactive: 0.91%
O=P(Nc1nccs1)(Oc1ccccc1)Oc1ccccc1 | inactive: 1.42%
CCOP1(=S)c2c(C)nn(CCC#N)c2N=C(c2ccccc2F)N1C (configuration not stated) | inactive: -1.26%
CCOP(=O)(Nc1cccc2ccccc12)OCC | inactive: 0.67%
COc1cc(C2NCCC3(OCCO3)C2(C)C)cc(OC)c1OC (configuration not stated) | inactive: -0.27%
CCCOP(=S)(Nc1nc(N)cc(=O)[nH]1)OCCC | inactive: -1.71%
Nc1cccc2c([As](=O)(O)O)cccc12 | inactive: -0.25%
Cc1ccc(NCCc2c([N+](=O)[O-])cc([N+](=O)[O-])cc2[N+](=O)[O-])cc1 | inactive: 1.17%
O=[As](O)(c1cccc(O)c1)c1cccc(O)c1 | inactive: 0.11%
Cc1cccc(OCC(=O)OC2CN3CCC2CC3)c1 (configuration not stated) | inactive: -0.14%
COc1cc(C(=O)NCC2(N3CCOCC3)CCCCC2)cc(Cl)c1OC(C)C | inactive: 0.26%
O=[As](O)(O)c1cccnc1 | inactive: -0.04%
O=C(OC1CN2CCC1CC2)c1ccc(Cl)cc1 (configuration not stated) | inactive: 0.37%
CC1(CBr)Cn2c(nc3ccccc3c2=O)S1 (configuration not stated) | inactive: 0.86%
O=[As](O)(c1ccccc1Br)c1ccccc1Br | inactive: 0.45%
CC(C)/C=N\N=C(\N)N[N+](=O)[O-] | inactive: -1.13%
CN(C(=O)Cc1ccc(Cl)c(Cl)c1)[C@@H]1CCCC[C@H]1N1CCCC1 | inactive: -0.2%
CC(C)(C)C(=O)NC(Sc1ncccn1)C(Cl)(Cl)Cl (configuration not stated) | inactive: 0.42%

Structure (SMILES) | activation
Clc1n[nH]nc1-c1nn[nH][15n]1 | inactive: 1.21%
CCOP(=O)(Nc1ccc(C)cn1)OCC | inactive: -0.17%
O=P1(Nc2ccccn2)COc2ccccc2OC1 | inactive: -0.61%
O=P1(Nc2ccc(Br)cn2)COc2ccccc2OC1 | inactive: -1.18%
O=[As](O)(c1cccs1)c1cccs1 | inactive: -0.13%
Cc1ccc(OCC(=O)OC2CN3CCC2CC3)cc1 (configuration not stated) | inactive: 0.8%
Nc1cccc([As](=O)(O)c2ccccc2)c1 | inactive: 0.44%
O=P1(Nc2ncccn2)COc2ccccc2OC1 | inactive: -0.68%
O=C(/C=C/c1ccccc1)OC1CN2CCC1CC2 (configuration not stated) | inactive: -0.07%
CN(C)C1(CNC(=O)c2ccc(S(C)(=O)=O)cc2)CCCCC1 | inactive: -0.32%
CC1CCC(C(C)C)C(OP(=O)(Nc2ccccn2)c2ccccc2)C1 (configuration not stated) | inactive: 2.56%
Cc1nn(-c2ccccc2)c2c1P(=O)(N1CCOCC1)N(C)C(c1ccccc1)=N2 (configuration not stated) | inactive: 0.29%
O=[N+]([O-])c1ccc(Nc2ccc(Oc3ccc([N+](=O)[O-])cc3[N+](=O)[O-])cc2)c([N+](=O)[O-])c1 | inactive: -0.36%
O=P(Nc1ccccn1)(c1cccc2ccccc12)c1cccc2ccccc12 | inactive: 0.23%
Cc1cc(SC(NC=O)C(Cl)(Cl)Cl)ncn1 (configuration not stated) | inactive: 2.66%
CCOC(=O)Nc1cccc([As](=O)(O)O)c1 | inactive: -0.26%
Cc1cc(SC(NC(=O)c2ccccc2)C(Cl)(Cl)Cl)nc(C(C)C)n1 (configuration not stated) | inactive: 3.88%
CCOC(=O)Nc1ccc([As](=O)(O)O)c(O)c1 | inactive: 0.5%
CCC(C)N(CC(C)C)C(=S)SC(NC(C)=O)C(Cl)(Cl)Cl (configuration not stated) | inactive: -0.3%
CCOC(=O)c1ccc(NC(=O)C(C)(CCl)SC)cc1 (configuration not stated) | inactive: 0.41%
O=C(COc1ccccc1)OC1CN2CCC1CC2 (configuration not stated) | inactive: 1.92%
COP1(=S)c2c(C)nn(CCC#N)c2N=C(c2ccc(F)cc2)N1C (configuration not stated) | inactive: 1.03%
COc1ccc(N/C(=N/P(=O)(N2CCOCC2)N2CCOCC2)N2CCOCC2)cc1 | inactive: -0.93%

Structure (SMILES) | activation
COc1cc(I)ccc1[As](=O)(O)O | inactive: 1.59%
COc1ccc2nc(NP(=O)(c3ccccc3)c3ccccc3)sc2c1 | inactive: 0.74%
Cc1cc(=O)[nH]c(N[N+](=O)[O-])n1 | inactive: 1.05%
O=C(OC1CN2CCC1CC2)C12CC3CC(CC(C3)C1)C2 (configuration not stated) | inactive: -0.22%
Cc1c2c(nc3ccccc13)SC(C(Cl)Cl)C2 (configuration not stated) | inactive: 1.62%
O=[N+]([O-])c1cc([N+](=O)[O-])c(-c2ccn[nH]2)s1 | inactive: 1.22%
CCN(CC)C(=S)SC(NC=O)C(Cl)(Cl)Cl (configuration not stated) | inactive: 1.12%
CC(C)NC(=O)NP(=O)(Oc1ccccc1)Oc1ccccc1 | inactive: 0.9%
CC(C)c1ccc(OP(=O)(Nc2ccccn2)Oc2ccccc2F)cc1 (configuration not stated) | inactive: 0.23%
ClCCSc1nnc(-c2cccnc2)o1 | inactive: -3.4%
Cc1ccc2nc3c(c(C)c2c1)CC(C(Cl)Cl)S3 (configuration not stated) | inactive: 1.64%
Cc1ccc(OP(=O)(Nc2ccc([N+](=O)[O-])cn2)Oc2ccc(C)cc2)cc1 | inactive: 0.85%
O=[As](O)(c1ccc(O)cc1)c1ccccc1O | inactive: 1.07%
C[As](=O)(O)c1cccc(C(=O)O)c1 | inactive: -1.48%
CCN(N=Nc1nonc1N)c1nonc1N | inactive: 1.48%
Nc1cccc2ccc([As](=O)(O)O)cc12 | inactive: -0.23%
Cc1ccc(NP(=O)(Oc2ccccc2F)Oc2ccccc2F)nc1 | inactive: 0.7%
CCOP(=O)(Nc1ccccc1)OCC | inactive: -0.42% and inactive: 1.33%
Cc1cc(SC(NC(=O)c2ccc(F)cc2)C(Cl)(Cl)Cl)ncn1 (configuration not stated) | inactive: 1.17%
O=C(O)c1ccccc1[As](=O)(O)O | inactive: 0.51%
CC(=O)Nc1ccc([As](=O)(O)O)cc1 | inactive: 0.31%

From PubChem BioAssay AID1509 (The Scripps Research Institute Molecular Screening Center, 2009)
